Test results published in patent US9750747B2, “Treatments involving eslicarbazepine acetate or eslicarbazepine” (BAIL-PORTELA & CA, S.A., priority 2011, dated 2017).

By UniProt entry, the sequences of proteins in these tests, tags left out. Residues count along the entry.
UniProt P14867, 28-456: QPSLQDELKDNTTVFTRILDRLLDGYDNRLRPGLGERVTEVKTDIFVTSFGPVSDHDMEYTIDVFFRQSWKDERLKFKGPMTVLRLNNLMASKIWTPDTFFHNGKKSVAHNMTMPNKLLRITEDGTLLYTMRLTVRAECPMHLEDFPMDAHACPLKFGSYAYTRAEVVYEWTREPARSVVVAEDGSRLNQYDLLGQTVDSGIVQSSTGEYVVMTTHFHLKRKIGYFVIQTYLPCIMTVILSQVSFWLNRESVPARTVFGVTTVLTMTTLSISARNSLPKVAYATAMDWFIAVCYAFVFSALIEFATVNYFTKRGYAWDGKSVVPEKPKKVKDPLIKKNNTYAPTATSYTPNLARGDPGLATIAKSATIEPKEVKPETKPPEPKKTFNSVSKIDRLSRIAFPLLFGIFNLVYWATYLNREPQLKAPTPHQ
UniProt P18507, 40-475: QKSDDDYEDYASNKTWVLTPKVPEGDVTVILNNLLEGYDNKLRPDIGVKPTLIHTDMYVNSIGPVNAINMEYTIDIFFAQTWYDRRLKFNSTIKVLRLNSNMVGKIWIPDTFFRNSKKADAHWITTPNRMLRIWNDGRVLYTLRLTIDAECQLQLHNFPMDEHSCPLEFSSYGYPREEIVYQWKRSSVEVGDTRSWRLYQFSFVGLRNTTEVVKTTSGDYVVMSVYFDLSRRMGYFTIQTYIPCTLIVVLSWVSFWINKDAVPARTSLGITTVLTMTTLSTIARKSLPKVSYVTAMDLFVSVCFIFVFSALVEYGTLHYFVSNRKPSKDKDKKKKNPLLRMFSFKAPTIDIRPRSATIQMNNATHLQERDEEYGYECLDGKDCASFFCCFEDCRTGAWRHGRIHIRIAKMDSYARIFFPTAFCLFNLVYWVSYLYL
UniProt P47870, 25-512 limits assumed: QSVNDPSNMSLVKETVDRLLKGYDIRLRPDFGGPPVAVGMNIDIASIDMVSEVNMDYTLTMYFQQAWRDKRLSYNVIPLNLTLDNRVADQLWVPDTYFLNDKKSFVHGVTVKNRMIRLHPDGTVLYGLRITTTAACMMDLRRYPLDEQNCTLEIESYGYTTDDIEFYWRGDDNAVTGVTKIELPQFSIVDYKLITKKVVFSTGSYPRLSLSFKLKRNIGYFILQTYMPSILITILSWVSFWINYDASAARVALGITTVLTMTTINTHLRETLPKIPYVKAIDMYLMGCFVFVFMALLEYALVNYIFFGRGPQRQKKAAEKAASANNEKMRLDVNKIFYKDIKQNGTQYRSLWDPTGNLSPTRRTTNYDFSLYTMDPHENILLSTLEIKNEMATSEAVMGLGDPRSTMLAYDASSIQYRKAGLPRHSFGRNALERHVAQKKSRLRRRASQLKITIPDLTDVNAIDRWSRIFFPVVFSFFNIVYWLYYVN

Target: T1, α1β2γ2 GABA receptors (Homo sapiens, UniProt P14867+P18507+P47870)
T1 construct: host or cells: Ltk cells, expression induced with dexamethasone
Test: whole-cell patch-clamp, sub-maximal GABA inward currents in stably transfected Ltk cells
Format: cell-based
Settings: Table 2
Description: Carbamazepine (CBZ) aggravates absence seizures in ‘generalized absence epilepsy rats from. Strasbourg’. One putative mechanism for the aggravation is through its reported potentiation of GABAA currents. A study was carried out to determine the effect of eslicarbazepine, R-licarbazepine and carbamazepine on sub-maximal GABA currents in Ltk cells stably expressing α1β2γ2, α2β2γ2, α3β2γ2 or α5β2γ2 GABA-receptors. The whole-cell patch-clamp technique was used to investigate the effects of the test compounds on GABAA receptors.
Used Ltk cells were stably transfected with recombinant GABAA cDNAs: α1β2γ2, α2β2γ2, α3β2γ2 or α5β2γ2 (B'SYS GmbH, Switzerland). Cells were maintained in a humidified atmosphere (95% relative humidity) with 5% CO2 and were grown in D-MEM/F-12 (1×, liquid, with GlutaMax 1) supplemented with 9% foetal bovine serum and 0.9% Penicillin/Streptomycin solution (Gibco BRL). For the electrophysiological experiments cells were cultivated, at a density that enabled single cells to be measured, in medium without antibiotics or antimycotics. Cells were tested 24-48 hours following induction of transgene expression with dexamethasone.
Cells were continuously perfused with bath solution (NaCl 137 mM, KCl 4 mM, CaCl2 1.8 mM, MgCl2 1 mM, D-Glucose 10 mM HEPES 10 mM, pH 7.4). The whole-cell patch clamp recordings from transfected Ltk cells (voltage-clamped at a holding potential of −80 mV) were made using a EPC-7, HEKA Electronics amplifier. GABA inward-currents were measured upon application of 1 or 2 μM GABA to patch-clamped cells (at an EC5). […]
SigmaPlot 8.02 was used to calculate the means±SEM of relative peak′current blockade for each test item. Analysis of Variance (ANOVA) with post test multisample comparison (Dunnett) was conducted with GraphPad Prism 4 Software.

SMILES: CN1CCc2cc3c(cc2[C@H]1[C@@H]1OC(=O)c2c1ccc1c2OCO1)OCO3 [Bicucculline]
- Current stimulation (%) α1β2γ2 (0.1 μM with GABA at EC5, Ltk cells): 70.48 ± 3.19 %
- Current stimulation (%) α1β2γ2 (1 μM with GABA at EC5, Ltk cells): 24.28 ± 1.70 %
- Current stimulation (%) α1β2γ2 (3 μM with GABA at EC5, Ltk cells): 8.23 ± 1.01 %
- Current stimulation (%) α1β2γ2 (30 μM with GABA at EC5, Ltk cells): 0.35 ± 0.49 %
